Cytotoxicity data for one compound are collected here from patent US20140127158A1, “COMBINATION THERAPY FOR HEPATITIS C VIRUS INFECTION” (National Health Research Institute, priority 2012, published 2014).

The series has as its system HCV genotype 1b replicon. Description: Inhibitor combination study (combination index, CalcuSyn). Particulars: at the concentrations used in the combination experiments.

SMILES strings stand for the structures.

Regarding `NC(=O)c1ncn([C@@H]2O[C@H](CO)[C@@H](O)[C@H]2O)n1` [Ribavirin, ribavirin, reference compound], the cytotoxicity entry is listed as “No cytotoxicity was observed”.
